The source of these data is ChEMBL document CHEMBL3526101, “Discovery and characterization of novel, potent, and selective cytochrome P450 2J2 inhibitors” (Drug Metab Dispos, 2013).

Protein sequences, listed by entry. Tags and fused reporters are not part of them.
UniProt P11712, whole entry: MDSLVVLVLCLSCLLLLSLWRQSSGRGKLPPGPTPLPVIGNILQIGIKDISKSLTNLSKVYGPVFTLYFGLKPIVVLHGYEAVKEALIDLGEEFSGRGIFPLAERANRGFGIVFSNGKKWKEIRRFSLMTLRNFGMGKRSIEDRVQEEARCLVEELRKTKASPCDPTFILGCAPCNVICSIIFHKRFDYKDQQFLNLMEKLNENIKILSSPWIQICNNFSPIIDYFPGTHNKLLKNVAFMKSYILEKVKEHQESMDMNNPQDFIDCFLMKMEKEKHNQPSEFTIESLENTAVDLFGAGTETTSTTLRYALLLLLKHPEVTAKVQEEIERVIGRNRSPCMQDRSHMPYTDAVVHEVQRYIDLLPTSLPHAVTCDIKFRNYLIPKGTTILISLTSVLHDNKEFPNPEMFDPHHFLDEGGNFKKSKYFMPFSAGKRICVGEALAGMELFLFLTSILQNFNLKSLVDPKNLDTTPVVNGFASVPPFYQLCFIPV

The structures appear in SMILES notation.

The first test addresses T1, Cytochrome P450 2J2 (Homo sapiens, UniProt P51589).
T1 sequence (P51589 whole entry): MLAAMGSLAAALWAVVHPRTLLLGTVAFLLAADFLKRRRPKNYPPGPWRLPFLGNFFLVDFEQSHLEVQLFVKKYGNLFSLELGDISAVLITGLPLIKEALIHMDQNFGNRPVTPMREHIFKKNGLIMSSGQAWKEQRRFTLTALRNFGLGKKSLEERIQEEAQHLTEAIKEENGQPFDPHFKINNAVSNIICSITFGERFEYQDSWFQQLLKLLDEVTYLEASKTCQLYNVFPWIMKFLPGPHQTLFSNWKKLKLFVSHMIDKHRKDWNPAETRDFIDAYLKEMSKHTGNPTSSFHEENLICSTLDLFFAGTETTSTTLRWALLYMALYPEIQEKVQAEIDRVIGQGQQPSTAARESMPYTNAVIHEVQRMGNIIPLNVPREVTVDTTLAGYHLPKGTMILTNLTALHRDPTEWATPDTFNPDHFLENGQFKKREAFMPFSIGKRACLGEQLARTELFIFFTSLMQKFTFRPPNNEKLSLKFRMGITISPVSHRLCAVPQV
As to `Cc1cc(=O)n(-c2ccccc2)n1C` [ANTIPYRINE], the IC50 (usually the concentration at which inhibition is half-maximal) is over 50 µM.
Same read-out and setting: the result for `CCc1cccc2cc(C(O)CNC(C)(C)C)oc12` (stereo unspecified) [BUFURALOL] reads over 50 µM; that for `CN/C(=N/CCSCc1nc[nH]c1C)NC#N` [CIMETIDINE], over 50 µM; that for `CNCCCN1c2ccccc2CCc2ccccc21` [DESIPRAMINE], over 50 µM.
Same read-out and setting: under `O=C(O)Cc1ccccc1Nc1c(Cl)cccc1Cl` [DICLOFENAC] stands over 50 µM; under `CN(C)CCOC(c1ccccc1)c1ccccc1` [DIPHENHYDRAMINE], over 50 µM.
Same read-out and setting: under `CNCCC(Oc1ccc(C(F)(F)F)cc1)c1ccccc1` (stereo unspecified) [FLUOXETINE] stands over 50 µM.
In turn, `O=C(CCCN1CCC(O)(c2ccc(Cl)cc2)CC1)c1ccc(F)cc1` [HALOPERIDOL] displayed an IC50 of 4.69 µM. In other words, the single-digit micromolar range.
Molecule `CC(C)Cc1ccc(C(C)C(=O)O)cc1` (stereo unspecified) [IBUPROFEN] registered an IC50 of over 50 µM.
The same measure, in the same setting: under `Cc1cccc(C)c1OCC(C)N` (stereo unspecified) [MEXILETINE] stands over 50 µM.
The same measure, in the same setting: the result for `COC(=O)C1=C(C)NC(C)=C(C(=O)OCCN(C)Cc2ccccc2)C1c1cccc([N+](=O)[O-])c1` (stereo unspecified) [NICARDIPINE] reads 1.69 µM; that for `CCn1cc(C(=O)O)c(=O)c2cc(F)c(N3CCNCC3)cc21` [NORFLOXACIN], 2.56 µM.
Same read-out and setting: the result for `CC(C)NCC(O)COc1cccc2ccccc12` (stereo unspecified) [PROPRANOLOL] reads over 50 µM; that for `CN1C(C(=O)Nc2ccccn2)=C(O)c2sccc2S1(=O)=O` [TENOXICAM], over 50 µM; that for `Clc1ccccc1CN1CCc2sccc2C1` [TICLOPIDINE], 21.8 µM.

In a further test the target is Cytochrome P450 2C9 (Homo sapiens, UniProt P11712).
`CC(C)COCC(CN(Cc1ccccc1)c1ccccc1)N1CCCC1` (stereo unspecified) [BEPRIDIL] came in with an IC50 of 4.31 µM. In other words, the single-digit micromolar range.
